This is an account of results in patent US11001745B2, “Hydrocarbon recovery composition, method, and system” (THE SASKATCHEWAN RESEARCH COUNCIL, priority 2016, dated 2021).

A short description of the data set: Thermal stability. Conditions: a few days. The data set is classed as physicochemical.

As to “octyl phenol ethoxylate [OPE, reference compound]”, the “Stability in water at high temperatures” value was “partly decomposed”.
